How the values were obtained:
[1] = Binding affinity towards sigma opioid receptor in guinea pig cerebral homogenate using [3H]DTG as radioligand
[2] = Binding affinity towards sigma opioid receptor was determined in guinea pig cerebral homogenate using [3H]haloperidol as radioligand
[3] = Binding affinity towards sigma receptor in guinea pig cerebral homogenate using [3H]DTG as radioligand

Compound	Ki [1] [nM]	Ki [2] [nM]	Ki [3] [nM]
C[C@@H](Cc1ccccc1)N(C)CCc1ccccc1 [Methyl-((S)-1-methyl-2-phenyl-ethyl)-phenethyl-amine]	6.6	4.8	–
C[C@H](Cc1ccccc1)NCC#Cc1ccccc1	–	–	97

Source: BindingDB's records for doi:10.1021/jm00107a033 (Virginia Commonwealth University, 1991)
